Laboratory results published in US8921410B2, “Nicotinic acetylcholine receptor sub-type selective amides of diazabicycloalkanes” (Targacept, Inc., priority 2006, dated 2014).
Read-outs that look alike come from different tables or passages of the source.

Protein sequences, listed by entry. Tags and fused reporters are not part of them. Residues count along the entry.
UniProt Q05941, 23-502 limits assumed: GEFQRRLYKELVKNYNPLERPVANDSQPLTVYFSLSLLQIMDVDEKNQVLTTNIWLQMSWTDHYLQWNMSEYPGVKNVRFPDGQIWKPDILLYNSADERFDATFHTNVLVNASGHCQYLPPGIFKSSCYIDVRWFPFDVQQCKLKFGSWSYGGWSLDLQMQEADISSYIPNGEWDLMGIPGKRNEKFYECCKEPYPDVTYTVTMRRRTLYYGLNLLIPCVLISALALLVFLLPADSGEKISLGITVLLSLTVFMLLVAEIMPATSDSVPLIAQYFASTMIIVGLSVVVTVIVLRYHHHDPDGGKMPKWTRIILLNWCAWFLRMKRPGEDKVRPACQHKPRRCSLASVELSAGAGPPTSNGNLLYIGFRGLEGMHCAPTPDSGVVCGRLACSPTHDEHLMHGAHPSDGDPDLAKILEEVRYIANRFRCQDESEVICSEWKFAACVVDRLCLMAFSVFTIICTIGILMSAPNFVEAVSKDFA
UniProt P09483, 31-630 limits assumed: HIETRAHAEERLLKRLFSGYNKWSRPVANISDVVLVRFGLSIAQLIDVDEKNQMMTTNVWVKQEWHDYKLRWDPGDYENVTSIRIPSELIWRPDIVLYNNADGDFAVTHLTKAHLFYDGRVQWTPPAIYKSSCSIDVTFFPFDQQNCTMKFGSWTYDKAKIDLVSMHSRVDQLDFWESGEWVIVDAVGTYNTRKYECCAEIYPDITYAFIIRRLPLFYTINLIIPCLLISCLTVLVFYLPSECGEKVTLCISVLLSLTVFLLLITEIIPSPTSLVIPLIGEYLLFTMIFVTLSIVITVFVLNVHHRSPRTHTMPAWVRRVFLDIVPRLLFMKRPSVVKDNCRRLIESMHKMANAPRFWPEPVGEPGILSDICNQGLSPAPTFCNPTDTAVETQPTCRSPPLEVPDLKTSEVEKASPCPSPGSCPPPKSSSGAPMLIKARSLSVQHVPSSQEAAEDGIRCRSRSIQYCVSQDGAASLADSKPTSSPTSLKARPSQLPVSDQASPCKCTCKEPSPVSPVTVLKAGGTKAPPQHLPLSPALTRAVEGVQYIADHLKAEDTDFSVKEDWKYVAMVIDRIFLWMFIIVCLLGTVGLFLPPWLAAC
UniProt P12390, 25-500 limits assumed: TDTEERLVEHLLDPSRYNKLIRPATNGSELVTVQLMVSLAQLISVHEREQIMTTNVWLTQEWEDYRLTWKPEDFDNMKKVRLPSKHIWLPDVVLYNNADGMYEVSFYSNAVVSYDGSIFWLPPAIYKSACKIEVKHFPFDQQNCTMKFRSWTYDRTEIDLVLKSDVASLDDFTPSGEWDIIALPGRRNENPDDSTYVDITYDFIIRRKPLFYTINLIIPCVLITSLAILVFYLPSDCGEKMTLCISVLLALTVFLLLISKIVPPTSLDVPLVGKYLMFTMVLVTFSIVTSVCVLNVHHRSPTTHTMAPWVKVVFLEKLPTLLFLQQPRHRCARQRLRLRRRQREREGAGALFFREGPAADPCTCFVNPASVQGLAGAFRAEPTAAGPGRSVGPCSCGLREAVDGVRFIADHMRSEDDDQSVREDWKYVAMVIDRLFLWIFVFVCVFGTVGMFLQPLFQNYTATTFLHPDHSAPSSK
UniProt P17787, 26-502 limits assumed: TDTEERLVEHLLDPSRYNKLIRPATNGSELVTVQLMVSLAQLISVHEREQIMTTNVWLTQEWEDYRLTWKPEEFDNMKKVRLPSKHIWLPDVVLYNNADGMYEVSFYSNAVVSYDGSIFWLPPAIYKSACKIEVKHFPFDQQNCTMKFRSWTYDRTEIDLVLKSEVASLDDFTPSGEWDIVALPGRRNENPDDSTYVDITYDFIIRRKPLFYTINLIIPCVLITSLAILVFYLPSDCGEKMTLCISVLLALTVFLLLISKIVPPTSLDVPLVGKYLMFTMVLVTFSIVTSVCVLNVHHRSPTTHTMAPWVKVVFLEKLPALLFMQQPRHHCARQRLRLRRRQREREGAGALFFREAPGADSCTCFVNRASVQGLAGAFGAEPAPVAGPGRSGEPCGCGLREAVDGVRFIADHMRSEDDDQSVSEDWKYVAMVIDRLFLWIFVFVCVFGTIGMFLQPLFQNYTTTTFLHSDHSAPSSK
UniProt P43681, 29-627 limits assumed: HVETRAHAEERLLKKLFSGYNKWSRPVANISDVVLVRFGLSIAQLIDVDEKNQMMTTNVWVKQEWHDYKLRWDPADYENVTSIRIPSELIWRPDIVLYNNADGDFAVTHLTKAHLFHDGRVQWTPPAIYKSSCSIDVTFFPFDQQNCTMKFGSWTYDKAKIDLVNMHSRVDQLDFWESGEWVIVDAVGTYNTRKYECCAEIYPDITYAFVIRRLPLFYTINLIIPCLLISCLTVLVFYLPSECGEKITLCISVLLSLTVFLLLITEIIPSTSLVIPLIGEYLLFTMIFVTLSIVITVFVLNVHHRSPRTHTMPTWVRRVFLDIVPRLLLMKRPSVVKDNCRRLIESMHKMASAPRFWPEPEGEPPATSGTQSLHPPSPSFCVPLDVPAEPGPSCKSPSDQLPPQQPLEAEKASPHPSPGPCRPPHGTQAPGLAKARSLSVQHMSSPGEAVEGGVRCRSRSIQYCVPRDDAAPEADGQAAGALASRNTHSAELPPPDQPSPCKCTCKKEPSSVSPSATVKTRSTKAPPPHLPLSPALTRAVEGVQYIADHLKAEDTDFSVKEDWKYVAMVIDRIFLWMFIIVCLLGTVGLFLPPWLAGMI

Assays:
[1] = target: α7 nAChR subtype (Rattus norvegicus (Rat), UniProt Q05941); test: Radioligand ([3H]MLA) binding at α7 nAChR, rat hippocampus membranes
[2] = target: rat α4β2 nAChR subtype (Rattus norvegicus (Rat), UniProt P09483+P12390); test: Radioligand ([3H]nicotine) binding at α4β2 nAChR, rat cortex membranes; details: read-out: Rat α4β2 Ki, [3H]nicotine 5 nM
[3] = target: human α4β2 nAChR subtype (Homo sapiens (Human), UniProt P17787+P43681); test: Radioligand ([3H]nicotine) binding at α4β2 nAChR, SH-EP1/human α4β2 clonal cell membranes; details: read-out: Human α4β2 Ki, [3H]nicotine 5 nM
[4] = did not bind sufficiently in HTS at α7 to warrant Ki determination

Row | SMILES | α7 high through-put screening outcome (Ki not determined) [1] | Ki [2] [nM] | Ki [3] [nM] | α7 high through-put screening outcome (Ki not determined) [1, 4]
1 | NS(=O)(=O)c1coc(C(=O)N2CC3CNCC(C3)C2)c1 | ND; failed HTS | 86 | 62 | 
2 | NS(=O)(=O)c1coc(C(=O)N2CC3CNCC3C2)c1 (stereo not shown) |  | 31 | 28 | ND; failed HTS
3 | O=C(c1coc(C(F)F)c1)N1CC2CNCC2C1 (stereo not shown) |  |  |  | ND; failed HTS
